Data as given in ChEMBL document CHEMBL2150892, “Neuroprotective Tri- and Tetracyclic BChE Inhibitors Releasing Reversible Inhibitors upon Carbamate Transfer” (ACS Med Chem Lett, 2012).

Chains of the proteins cited; added tags and fusions are not shown. Lines headed by an entry give the natural chain unless they say otherwise; changes in a name come on top.
UniProt P81908, whole entry: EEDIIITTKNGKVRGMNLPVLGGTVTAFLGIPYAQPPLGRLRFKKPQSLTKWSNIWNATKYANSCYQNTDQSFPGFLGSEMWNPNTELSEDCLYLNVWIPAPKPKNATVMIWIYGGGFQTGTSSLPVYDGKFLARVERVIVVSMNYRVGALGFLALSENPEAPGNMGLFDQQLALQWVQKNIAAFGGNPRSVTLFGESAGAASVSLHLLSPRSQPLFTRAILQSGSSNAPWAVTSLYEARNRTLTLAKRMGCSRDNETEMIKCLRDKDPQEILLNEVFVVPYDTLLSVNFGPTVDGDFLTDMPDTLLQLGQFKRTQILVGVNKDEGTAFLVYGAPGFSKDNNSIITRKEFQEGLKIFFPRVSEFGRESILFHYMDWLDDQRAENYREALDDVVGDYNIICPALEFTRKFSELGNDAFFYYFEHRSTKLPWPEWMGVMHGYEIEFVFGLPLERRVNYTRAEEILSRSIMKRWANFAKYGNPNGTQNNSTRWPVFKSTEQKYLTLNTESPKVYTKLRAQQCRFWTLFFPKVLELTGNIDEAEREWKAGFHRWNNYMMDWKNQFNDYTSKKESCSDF
UniProt O42275: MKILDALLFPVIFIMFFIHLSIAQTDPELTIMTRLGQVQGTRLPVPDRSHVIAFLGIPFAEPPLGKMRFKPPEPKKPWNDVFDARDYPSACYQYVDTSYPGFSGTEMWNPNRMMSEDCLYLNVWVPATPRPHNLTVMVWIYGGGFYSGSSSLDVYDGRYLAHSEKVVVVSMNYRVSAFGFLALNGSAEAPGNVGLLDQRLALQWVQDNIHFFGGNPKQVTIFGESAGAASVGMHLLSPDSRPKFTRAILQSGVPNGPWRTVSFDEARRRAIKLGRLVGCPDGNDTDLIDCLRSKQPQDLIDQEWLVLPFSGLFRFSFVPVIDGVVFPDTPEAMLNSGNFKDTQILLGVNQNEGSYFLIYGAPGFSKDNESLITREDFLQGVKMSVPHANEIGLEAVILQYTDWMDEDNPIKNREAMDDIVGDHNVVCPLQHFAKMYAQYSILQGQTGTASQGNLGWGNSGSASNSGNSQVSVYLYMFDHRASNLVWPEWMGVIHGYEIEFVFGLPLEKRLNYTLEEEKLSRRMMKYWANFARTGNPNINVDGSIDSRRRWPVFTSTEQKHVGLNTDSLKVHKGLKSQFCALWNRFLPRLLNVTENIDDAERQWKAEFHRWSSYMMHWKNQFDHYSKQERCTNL

Tests used:
Cholinesterase [1] = target: T1, Cholinesterase (Equus caballus, UniProt P81908); assay: Inhibition of equine serum BChE using acetylthiocholine as substrate after 2 mins
Procedure, shortened: (§1)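 Enzyme sources were electric eel AChE and equine serum BChE. Values are means of at least three independent determinations. Single-point entries are % inhibition at 100 μM.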

Acetylcholinesterase [2] = target: T2, Acetylcholinesterase (Electrophorus electricus, UniProt O42275); assay: Time dependent inhibition of Electric eel AChE assessed as stability constants of inhibitor-enzyme complex using acetylthiocholine as substrate after 60 mins
Acetylcholinesterase [3] = target: T2, Acetylcholinesterase; assay: Inhibition of Electric eel AChE using acetylthiocholine as substrate after 2 mins; procedure, shortened: as §1
Cholinesterase [4] = target: T1, Cholinesterase; assay: Time dependent inhibition of equine serum BChE assessed as stability constants of inhibitor-enzyme complex using acetylthiocholine as substrate after 60 mins

Work on `CNC(=O)Oc1ccc2c(c1)[C@]1(C)CCN(C)[C@@H]1N2C` [PHYSOSTIGMINE] yielded an IC50 (Cholinesterase [1]) of 42 nM, a Ki (Acetylcholinesterase [2]) of 34 nM and an IC50 (Acetylcholinesterase [3]) of 90 nM. It also gave a Ki (Cholinesterase [4]) of 41 nM.
